The values that follow are results of earlier work, collected in paper PMC9099121, “Population pharmacokinetic and exposure‐response analyses from ALTA‐1L: Model‐based analyses supporting the brigatinib dose in ALK‐positive NSCLC” (Clinical and Translational Science, 2022).

Data set [1] deals with advanced ALK inhibitor-naive ALK+ NSCLC. The arrangement: method as in PMID 32780660. The conditions noted are these: cited from earlier work.
In data set [2] the test system is crizotinib-resistant ALK+ NSCLC. Further details: method as in PMID 29748847. The conditions noted are these: time-independent measure; patients with crizotinib-resistant ALK+ NSCLC; cited from earlier work.

As to `C[C@@H](Oc1cc(-c2cnn(C3CCNCC3)c2)cnc1N)c1c(Cl)ccc(F)c1Cl` [crizotinib], the “2-year intracranial PFS rate” value in data set [1] (ALTA-1L, patients with any baseline brain metastases) is listed as 15%. Besides, in data set [1] (second ALTA-1L interim analysis, patients with measurable baseline brain metastases), the iORR is on record as 26%.
As for `CCc1cc2c(cc1N1CCC(N3CCOCC3)CC1)C(C)(C)c1[nH]c3cc(C#N)ccc3c1C2=O` [alectinib], the “Exposure (median observed steady-state trough concentrations) as predictor of overall survival” value in data set [2] is listed as “not a significant predictor of overall survival”.
